This data set concerns the molecule itself. The experiment in a line: SEC-MALS; ND1 and D1D2 fragments of p97 with or without different nucleotides (Supplementary Fig. S9a, b). For orientation: In gel filtration, larger molecules generally elute earlier.

B1: p97 D1D2 fragment (residues 210–806) (domain or fragment)
chain: not shown
notes: human p97, D1 and D2 domains with the C-terminal extension, residues 210-806; source: E. coli BL21 (DE3), purified
As for B1, the binding result is given as “binds”.
